Reference: patent US20230248844A1, “C[…] ADC OR AN AOC COMPRISING A VHH, AND A SAPONIN OR A LIGAND-SAPONIN CONJUGATE” (SAPREME TECHNOLOGIES B.V., priority 2020, published 2023)

Tests used:
[1] = tested on: MDA-MB-468 cells; experiment: Cell killing / cell viability (MTS) assay on MDA-MB-468; format: cell-based, human
[2] = tested on: A431 cells; experiment: Cell killing / cell viability (MTS) assay on A431; format: cell-based, human
[3] = monkeys; cited from earlier work
[4] = tested on: human A431 tumor cells xenograft; experiment: A431 xenograft tumor model, tumor volume and survival (Example 10); format: in vivo, Balb/c nude mice; conditions: sub-optimal ADC dose
[5] = tested on: SK-BR-3 cells; experiment: Cell killing / cell viability (MTS) assay on SK-BR-3; format: cell-based, human
[6] = tested on: A2058 cells; experiment: Cell killing / cell viability (MTS) assay on A2058; format: cell-based, human
[7] = tested on: HeLa cells; experiment: Cell killing / cell viability (MTS) assay on HeLa; format: cell-based, human; conditions: mAb-SO1861 conjugate titrated + fixed 50 pM trastuzumab-saporin (Example 14)
[8] = mAb or mAb-SO1861 conjugate titrated + fixed 50 pM trastuzumab-saporin (Example 14)
[9] = mAb-SO1861 (DAR4) titrated + fixed 50 pM bivalentVHH-EGFR-dianthin
[10] = SO1861 or mAb-SO1861 titrated (calculated on SO1861 concentration) + fixed 10 pM EGF-dianthin
[11] = SO1861 or mAb-SO1861 titrated (calculated on SO1861 concentration) + fixed 10 pM cetuximab-saporin
[12] = SO1861 or mAb-SO1861 titrated (calculated on SO1861 concentration) + fixed 50 pM trastuzumab-saporin

For “T-DM1: Trastuzumab-emtansine carrying ~3.5 DM1 toxin molecules per antibody [reference compound]”, the IC50 ([1]; titrated alone) is given as 60 nM, the IC50 cell killing ([2]; titrated alone) is given as “nanomolar concentrations” and the “enhancement of tolerable dose of DM1 by conjugation to trastuzumab” value [3] is given as “at least two-fold”.
For “Cetuximab: monoclonal antibody recognizing and binding human EGFR [reference compound]”, the IC50 cell killing [2, 8] was “could not induce any cell killing activity”, the IC50 cell killing ([2]; titrated alone) was “could not induce any cell killing activity” and the “outcome (death/euthanasia or survival)” value [4] was “(death/euthanasia)”.
Substance “Cetuximab-SO1861 (DAR4): SO1861-EMCH conjugated via cysteine residues to cetuximab, DAR 4” has an IC50 [5, 9] of 200 nM, an IC50 [1, 9] of 0.5 nM and an IC50 [2, 9] of 4 nM.
With “Trastuzumab: monoclonal antibody recognizing and binding human HER2 [reference compound]” the IC50 cell killing ([5]; mAb or mAb-SO1861 conjugate titrated + fixed 1.5 pM EGFdianthin (Example 14)) was “could not induce any cell killing activity”, the IC50 cell killing ([5]; mAb or mAb-SO1861 conjugate titrated + fixed 5 pM cetuximab-saporin (Example 14)) was “could not induce any cell killing activity” and the IC50 cell killing ([5]; titrated alone) was “could not induce any cell killing activity”.
Substance “cetuximab-SO1861: SO1861-EMCH conjugated via cysteine residues to cetuximab, DAR 3.7” has an IC50 [1, 10] of 6 nM, an IC50 [1, 11] of 3 nM and an IC50 [1, 12] of 18 nM. It also gave an IC50 [2, 10] of 8 nM, an IC50 [2, 11] of 5 nM and an IC50 [2, 12] of 12 nM. The IC50 [2, 8] was 3 nM, the IC50 cell killing ([2]; titrated alone) was “could not induce any cell killing activity” and the IC50 ([6]; mAb-SO1861 conjugate titrated + fixed 50 pM trastuzumab-saporin (Example 14)) was over 400 nM. For the same substance, the IC50 [7] was 400 nM, the “outcome (death/euthanasia or survival)” value [4] was “death/euthanasia” and the “tumor size (volume)” value ([4]; tumor approximately 170-180 mm^3 at start of treatment) was 2000 mm^3.
With “trastuzumab-SO1861: SO1861-EMCH conjugated via cysteine residues to trastuzumab, DAR 4” the IC50 cell killing ([5]; titrated alone) was “could not induce any cell killing activity”, the IC50 [1, 9] was 400 nM and the IC50 ([1]; mAb-SO1861 conjugate titrated + fixed 1.5 pM EGFdianthin (Example 14)) was over 1000 nM. The IC50 [2, 9] was 400 nM and the IC50 [6, 9] was 400 nM.
